Experiment: Solubility in water by UPLC
Type: physicochemical

Substance: (R)-8-chloro-1-methyl-2,3,4,5-tetrahydro-1H-3-benzazepine oxoglutarate salt [Compound 1 Oxoglutarate Salt, Form I]
- solubility in water: > 65.1 mg/mL
